Tested on: HCT116 colon cancer cell line
Test: MTS-based cell proliferation inhibition assay
Parameters: species or system human
Details: dose-dependent (FIG. 2)

On1nnc2cc(CCc3noc(=S)[nH]3)ccc21 [Compound 7, 3-(2-(1-hydroxy-1H-benzo[d][1,2,3]triazol-5-yl)ethyl)-1,2,4-oxadiazole-5(4H)-thione]
inhibition of growth of colon cancer cell HCT116: inhibit the proliferation

From patent US9738628B2, “Substituted 1H-indazol-1-OL analogs as inhibitors of beta catenin/Tcf protein-protein interactions” (University of Utah Research Foundation, priority 2012, dated 2017)
